Data: article PMC7207076 (Biochemistry, 2020)

Biological target: T1, KDM5A1–797 (Homo sapiens, UniProt P29375)
T1 sequence (P29375 1-797): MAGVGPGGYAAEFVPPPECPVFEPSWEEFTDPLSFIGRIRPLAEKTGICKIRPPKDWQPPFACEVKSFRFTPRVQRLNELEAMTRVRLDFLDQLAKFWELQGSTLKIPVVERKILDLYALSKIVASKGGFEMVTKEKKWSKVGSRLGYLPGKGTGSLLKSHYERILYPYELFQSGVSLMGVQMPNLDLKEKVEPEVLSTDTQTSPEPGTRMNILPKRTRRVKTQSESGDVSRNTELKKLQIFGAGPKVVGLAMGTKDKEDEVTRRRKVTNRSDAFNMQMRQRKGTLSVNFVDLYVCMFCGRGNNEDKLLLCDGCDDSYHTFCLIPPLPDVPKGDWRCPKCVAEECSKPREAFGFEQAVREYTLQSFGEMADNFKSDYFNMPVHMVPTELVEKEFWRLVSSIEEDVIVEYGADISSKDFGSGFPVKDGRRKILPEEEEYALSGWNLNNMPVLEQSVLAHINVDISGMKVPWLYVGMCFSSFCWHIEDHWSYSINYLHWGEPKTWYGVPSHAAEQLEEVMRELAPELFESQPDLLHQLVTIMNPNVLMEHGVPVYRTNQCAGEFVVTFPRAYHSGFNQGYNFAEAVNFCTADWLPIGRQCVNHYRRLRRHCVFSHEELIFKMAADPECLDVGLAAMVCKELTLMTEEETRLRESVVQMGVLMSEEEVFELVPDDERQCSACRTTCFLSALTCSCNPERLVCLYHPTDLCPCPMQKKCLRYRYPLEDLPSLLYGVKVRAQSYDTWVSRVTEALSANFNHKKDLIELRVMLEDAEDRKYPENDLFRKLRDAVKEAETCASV
Format: biochemical
Details: H3K4me3 basic patch (K14-K18) deletion/mutant/acetylated peptides

Substance: 18mer-K14acK18ac: 18mer H3K4me3 peptide with acetylated lysines 14 and 18
- fold increase of KMapp compared to the 18mer WT peptide: 4 fold
